Values of other authors as cited in US10314839B2, “Diversion-resistant opioid formulations” (priority 2014, dated 2019).

How the values were obtained:
opioid receptor [1] = test system: opioid receptor
opioid receptor [2] = test system: opioid receptor; remark: listed apart in the source

For `C=CCN1CC[C@]23c4c5ccc(O)c4O[C@H]2C(=O)CC[C@@]3(O)[C@H]1C5` [naloxone], the “Opioid agonist effects / properties” value (opioid receptor [1]) is given as “almost devoid of agonist effects”, the “Effect on morphine-like opioid agonists” value (opioid receptor [2]; 0.4-0.8 mg intramuscularly or intravenously, in man) is given as “prevent or reverse the effects of morphine-like opioid agonists” and the “Block of the effect of heroin” value (opioid receptor [2]; One mg intravenously vs 25 mg of heroin) is given as “completely block the effect of 25 mg of heroin”.
